The record followed here is ChEMBL document CHEMBL1134106, “Novel heteroaryl replacements of aromatic 3-tetrafluoroethoxy substituents in trifluoro-3-(tertiaryamino)-2-propanols as potent inhibitors of cholesteryl ester transfer protein” (Bioorg Med Chem Lett, 2001).

This test concerns the target T1, Cholesteryl ester transfer protein (Homo sapiens, UniProt P11597).
T1 sequence (P11597 whole entry): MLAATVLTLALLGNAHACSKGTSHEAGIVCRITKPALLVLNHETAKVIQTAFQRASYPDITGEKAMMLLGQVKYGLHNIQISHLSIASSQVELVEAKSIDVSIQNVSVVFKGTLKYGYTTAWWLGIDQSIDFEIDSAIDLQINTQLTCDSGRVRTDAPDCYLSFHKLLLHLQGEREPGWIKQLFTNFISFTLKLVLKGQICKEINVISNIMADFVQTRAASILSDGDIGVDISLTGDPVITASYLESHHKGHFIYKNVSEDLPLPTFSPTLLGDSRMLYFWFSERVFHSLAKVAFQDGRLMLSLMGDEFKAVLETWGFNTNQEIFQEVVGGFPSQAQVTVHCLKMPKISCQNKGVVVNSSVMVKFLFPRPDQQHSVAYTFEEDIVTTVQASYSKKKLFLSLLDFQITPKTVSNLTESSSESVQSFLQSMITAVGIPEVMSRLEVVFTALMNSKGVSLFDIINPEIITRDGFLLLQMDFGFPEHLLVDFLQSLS
In words: In vitro human CETP inhibitory activity assessed by measuring the rate of [3H]cholesteryl ester ([3H]CE) from HDL donor particles to LDL acceptor particles using human serum by serum transfer assay.

As usually defined, the IC50 is the midpoint of a concentration-inhibition curve. A low value points to inhibition by little substance. With `CCOc1cccc(CN(CC(O)C(F)(F)F)c2cccc(Oc3ccccc3)c2)c1` (stereo unspecified), the half-maximal inhibitory concentration (IC50) turned out to be 6 µM.
